For this test, the target named is human TRPV1 receptors (Homo sapiens, UniProt Q8NER1). In words: Inhibition of capsaicin-stimulated Ca2+ influx (Fluo-3, FDSS-3000) in CHO-K1 cells stably expressing human TRPV1 receptors. Particulars: CHO-K1 cells transfected with human TRPV1; capsaicin stimulation; Fluo-3 fluorescence. The procedure: CHO-K1 cells were transfected with human TRPV1 receptors and a cell culture stably expressing the receptor was seeded on a medium of alpha-MEM containing FBS(10%), HEPES (20 mM), geneticin (1 mg/mL) and antibiotic-antimycotic mixed solution(1%) in 96-well plates, and incubated at 37° C. and 5% CO2 for 2-3 days.
The medium was then substituted with Lording Buffer (20 mM HEPES, 115 mM NaCl, 5.4 mM KCl 0.8 mM MgCl2, 1.8 mM CaCl2, 13.8 mM D-glucose, 2.5 mM probenecid, pH 7.4) containing Fluo-3 AM (5 μM) and incubated at 37° C. and 5% CO2 for 1 hour. The test compounds were diluted to different concentrations and added to the plates after the incubated culture was washed with Wash Buffer (20 mM HEPES, 115 mM NaCl, 5.4 mM KCl 0.8 mM MgCl2, 5.0 mM CaCl2, 13.8 mM D-glucose, 2.5 mM probenecid, 0.1% BSA, pH 7.4) and placed at room temperature for 15 minutes.
The plate was set up in Functional Drug Screening System(FDSS)-3000(Hamamatsu Photonics K.K.) and amounts of Ca^2+ influx before and after capsaicin-stimulation were measured through changes in the fluorescence intensity of Fluo-3.
An inhibitory activity was evaluated by measuring fluorescence intensity in the presence of various concentrations of the test compounds and calculating their % inhibition on the basis that the maximum fluorescence intensity is 100% inhibition when stimulated by Wash Buffer, and 0% inhibition when stimulated by capsaicin
Data analysis and calculation of IC50 values were performed with Excel(Microsoft Corporation) and XLfit(idbs).

Protein sequences, listed by entry. Tags and fused reporters are not part of them.
UniProt Q8NER1, whole entry: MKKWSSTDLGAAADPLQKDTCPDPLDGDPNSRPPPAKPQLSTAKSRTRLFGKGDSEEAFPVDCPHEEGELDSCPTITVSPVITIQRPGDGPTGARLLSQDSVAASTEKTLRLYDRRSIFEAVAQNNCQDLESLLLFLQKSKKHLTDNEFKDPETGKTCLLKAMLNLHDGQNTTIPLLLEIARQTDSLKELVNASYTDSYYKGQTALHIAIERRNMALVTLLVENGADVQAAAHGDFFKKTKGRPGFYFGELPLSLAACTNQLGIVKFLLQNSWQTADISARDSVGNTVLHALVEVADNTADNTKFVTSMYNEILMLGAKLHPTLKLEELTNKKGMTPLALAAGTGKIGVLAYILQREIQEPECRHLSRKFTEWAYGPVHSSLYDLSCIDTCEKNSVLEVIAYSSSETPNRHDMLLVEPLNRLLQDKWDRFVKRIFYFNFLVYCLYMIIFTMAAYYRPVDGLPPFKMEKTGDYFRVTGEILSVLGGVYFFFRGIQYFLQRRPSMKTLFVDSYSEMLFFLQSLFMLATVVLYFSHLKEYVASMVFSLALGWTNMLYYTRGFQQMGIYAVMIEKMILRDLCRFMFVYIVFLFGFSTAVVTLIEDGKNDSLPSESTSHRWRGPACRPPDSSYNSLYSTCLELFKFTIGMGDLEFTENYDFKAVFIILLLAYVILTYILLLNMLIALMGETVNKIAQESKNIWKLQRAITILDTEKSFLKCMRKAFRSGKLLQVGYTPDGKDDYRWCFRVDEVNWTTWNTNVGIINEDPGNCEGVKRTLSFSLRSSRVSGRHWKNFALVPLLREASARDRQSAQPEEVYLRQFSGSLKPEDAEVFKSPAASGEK

SMILES strings stand for the structures.

The results in this text go back to patent US20090163549A1, “Pharmaceutical Composition Comprising an Amide Derivative” (priority 2005, published 2009).

As a reminder, the IC50 is the concentration needed to halve the response being measured. High values mean a need for much substance, low ones inhibition by little substance.

`CC(C)(C)c1ccc(NC(=O)c2ccc(C3=NCCS3)nc2)cc1` showed an IC50 of 49 nM. Next, `CC(C)(C)c1cc(NC(=O)c2ccc(C3=NCCS3)cc2)no1`: 160 nM. Next, `CC(C)(C)c1ccc(NC(=O)c2ccc(C3=NCCO3)cc2)cc1`: 39 nM.
